Measurements as given in patent US20050192261A1, “Methods and reagents for the treatment of immunoinflammatory disorders” (priority 2003, published 2005).

Test system: TNFα secretion in white blood cells from human buffy coat stimulated with phorbol 12-myristate 13-acetate and ionomycin
Assay: TNFα secretion assay
Conditions: prednisolone 0 μM; cetrizine HCl r5-r13: 0,0.2,0.4,0.8,1.6,3.2,6.4,13,26 μM

SMILES: Cl.Cl.O=C(O)COCCN1CCN(C(c2ccccc2)c2ccc(Cl)cc2)CC1 (stereo not shown) [Cetrizine HCl]
- inhibition of TNFα secretion: 2.4
